Biological target: T1, Kir2.1 channel (Mus musculus, UniProt P35561)
T1 sequence (P35561 1-428): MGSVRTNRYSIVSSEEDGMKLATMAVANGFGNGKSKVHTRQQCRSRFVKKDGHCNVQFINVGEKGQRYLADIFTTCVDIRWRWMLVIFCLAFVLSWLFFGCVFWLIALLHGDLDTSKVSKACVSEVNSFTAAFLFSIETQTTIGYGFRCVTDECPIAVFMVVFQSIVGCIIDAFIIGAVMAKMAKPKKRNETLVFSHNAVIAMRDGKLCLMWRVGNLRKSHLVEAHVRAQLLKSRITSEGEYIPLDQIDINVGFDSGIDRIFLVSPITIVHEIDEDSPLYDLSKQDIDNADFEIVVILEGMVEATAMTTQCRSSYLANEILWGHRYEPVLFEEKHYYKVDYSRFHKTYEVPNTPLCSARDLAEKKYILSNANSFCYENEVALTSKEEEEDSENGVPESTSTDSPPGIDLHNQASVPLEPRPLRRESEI
Experiment: Patch-clamp recording of Kir2.1 currents in freshly isolated brain capillary endothelial cells (cECs)

C[N+](C)(C)CC#CCN1CCCC1=O.[I-] [oxotremorine M, N,N,N-trimethyl-4-(2-oxo-1-pyrolidinyl)-2-butyn-1-ammonium iodide]
Decrease of Kir2.1 currents after 15-minute incubation: 40±5%

From patent US20220168325A1, “METHODS TO PROMOTE CEREBRAL BLOOD FLOW IN THE BRAIN” (THE UNIVERSITY OF VERMONT, priority 2019, published 2022)
